{
  "source": "patent US11312763B2",
  "about": "“Anti-N3pGlu amyloid beta peptide antibodies and uses thereof” (Eli Lilly and Company, priority 2016, dated 2022)",
  "key": {"[1]": {"assay": "Phase I single-dose and multiple-dose, dose-escalation study: PK", "format": "in vivo, human", "from_the_text": "(§1) This phase concluded with a 12-week follow-up period."}, "[2]": {"assay": "Phase I single-dose and multiple-dose study: safety, antidrug antibodies", "format": "in vivo, human", "from_the_text": "as §1"}, "cerebral amyloid [3]": {"test_system": "cerebral amyloid", "assay": "Phase I study: florbetapir PET imaging of cerebral amyloid", "format": "in vivo, human", "procedure": "as §1\nFlorbetapir scans were performed at baseline and after the last MAD dose, separated by approximately 7 months. The change in whole grey matter standardized uptake value ratio (SUVr) with cerebellum as a reference region was compared across dose cohorts, and the SUVr values were convened to standardized centiloid (CL) units."}, "cerebral amyloid [4]": {"test_system": "cerebral amyloid", "assay": "Phase Ib single- and multiple-dose study: quantitative amyloid PET imaging (florbetapir CL)", "format": "in vivo, human", "procedure": "A phase Ib, double-blind, randomized within cohort, placebo-controlled, parallel-group, single- and multiple-dose study in patients with MCI due to AD or mild-to-moderate AD is being conducted to assess the safety, tolerability, and PK of single and multiple IV doses of Antibody III. The study will be conducted in at least seven cohorts, including single IV doses at 10 mg/kg, 20 mg/kg, or 40 mg/kg (cohorts 1, 2, and 3, respectively), IV doses every two weeks for 24 weeks at 10 mg/kg or 20 mg/kg (cohorts 4 and 5, respectively), and IV doses every four weeks for up to 72 weeks at 10 mg/kg or 20 mg/kg (cohorts 6 and 7, respectively).\nThe primary target engagement outcome is the reduction of cerebral amyloid as measured by quantitative amyloid PET imaging (florbetapir CL) assessed at baseline and at 12 weeks, 24 weeks, 36 weeks, 48 weeks, and 72 weeks after starting treatment."}, "deposited Aβ": {"test_system": "deposited Aβ", "assay": "Ex vivo target engagement on fixed PDAPP brain sections (immunohistochemistry)", "format": "binding, aged PDAPP mice", "settings": "20 μg/mL antibody on brain sections of 25-month old PDAPP mice", "procedure": "Cryostat serial coronal sections from aged PDAPP mice (25-month old) are incubated with 20 μg/mL of an exemplified N3pGlu Aβ antibody of the present invention. Secondary HRP reagents specific for human IgG are employed and the deposited plaques are visualized with DAB-Plus (DAKO). Biotinylated murine 3D6 antibody followed by Step-HRP secondary is used as a positive control."}, "[5]": {"settings": "6 patients, 3 to 5 doses of 10 mg/kg IV over 6 months"}},
  "data": [
    {"molecule": "Antibody III: anti-N3pGlu Aβ antibody, LC SEQ ID NO: 28 and HC SEQ ID NO: 29 (antibody) heavy: QVQLVQSGAEVKKPGSSVKVSCKASGYDFTRYYINWVRQAPGQGLEWMGWINPGSGNTKYNEKFKGRVTITADESTSTAYMELSSLRSEDTAVYYCAREGITVYWGQGTTVTVSSASTKGPSVFPLAPSSKSTSGGTAALGCLVKDYFPEPVTVSWNSGALTSGVHTFPAVLQSSGLYSLSSVVTVPSSSLGTQTYICNVNHKPSNTKVDKKV[human IgG1 Fc left out here] light: DIVMTQTPLSLSVTPGQPASISCKSSQSLLYSRGKTYLNWLLQKPGQSPQLLIYAVSKLDSGVPDRFSGSGSGTDFTLKISRVEAEDVGVYYCVQGTHYPFTFGQGTKLEIKRTVAAPSVFIFPPSDEQLKSGTASVVCLLNNFYPREAKVQWKVDNALQSGNSQESVTEQDSKDSTYSLSSTLTLSKADYEKHKVYACEVTHQGLSSPVTKSFNRGEC", "values": [
      {"measurement": "mean clearance", "setting": "[1]; AD patients, single IV dose 1.0 mg/kg", "value": 35.6, "unit": "mL/h"},
      {"measurement": "mean clearance", "setting": "[1]; AD patients, single IV dose 10 mg/kg", "value": 26.3, "unit": "mL/h"},
      {"measurement": "mean terminal elimination half-life", "setting": "[1]; AD patients, single IV dose from 0.1 mg/kg to 3.0 mg/kg", "value": "approximately 4 days"},
      {"measurement": "Antibody III concentrations following multiple doses versus single-dose administration", "setting": "[1]; multiple-dose phase, 10-mg/kg dose level", "value": "generally similar to those observed after single-dose administration"},
      {"measurement": "Antibody III concentrations following multiple doses versus following the first single dose", "setting": "[1]; multiple-dose phase, dose levels other than 10 mg/kg", "value": "significantly lower"},
      {"measurement": "serum Antibody III concentrations 28 days after dosing", "setting": "[1]; multiple-dose phase, most patients at dose levels ≤3 mg/kg", "value": "below the limits of detection"},
      {"measurement": "serum Antibody III concentrations 28 days after dosing", "setting": "[1]; multiple-dose phase, patients receiving 10 mg/kg", "value": "sustained quantifiable concentrations"},
      {"measurement": "patients with treatment-emergent antidrug antibodies (ADAs)", "setting": "[2]; 3 months after the first dose, all dose groups", "value": "Greater than 90%"},
      {"measurement": "cerebral vasogenic edema or microhemorrhage complications", "setting": "[2]; [5]", "value": "without cerebral vasogenic edema or microhemorrhage complications"},
      {"measurement": "ADA titers", "setting": "[2]; by the end of the MAD phase, persist 3 months after the last dose", "value": "tended to increase"},
      {"measurement": "infusion related reactions", "setting": "[2]; upon multiple dosing", "value": "increased infusion related reactions"},
      {"measurement": "mean reduction of cerebral amyloid", "setting": "cerebral amyloid [3]; [5]", "value": 44, "unit": "CL units"},
      {"measurement": "change in cerebral amyloid (florbetapir PET imaging)", "setting": "cerebral amyloid [3]; 6 patients, 3 to 5 doses of 10 mg/kg IV over 6 months, baseline vs after last MAD dose (approx. 7 months)", "value": "significant reduction"},
      {"measurement": "mean reduction in brain amyloid", "setting": "cerebral amyloid [3]; corresponds to the mean CL reduction, 3 to 5 doses of 10 mg/kg IV over 6 months", "value": "40-50%"},
      {"measurement": "amyloid removal in extended follow up (florbetapir scans)", "setting": "cerebral amyloid [3]; three subjects, 3-5 doses of 10 mg/kg IV, 18 months after last dose", "value": "sustained amyloid removal"},
      {"measurement": "mean reductions of amyloid in cohorts to date by florbetapir PET", "setting": "cerebral amyloid [4]; 10, 20 and 40 mg/kg single doses and 10 mg/kg multiple doses, 12 weeks", "value": "−12 to −39", "unit": "CL"},
      {"measurement": "amyloid clearance in scans beyond 12 weeks", "setting": "cerebral amyloid [4]; multiple dose cohort, with dosing", "value": "further amyloid clearance is observed"},
      {"measurement": "amyloid clearance in scans beyond 12 weeks", "setting": "cerebral amyloid [4]; single dose cohorts", "value": "amyloid clearance is sustained"},
      {"measurement": "labeling of deposited Aβ in PDAPP hippocampus", "setting": "deposited Aβ", "value": "labeled a subset of deposits"}
    ]},
    {"molecule": "Antibody IV: anti-N3pGlu Aβ antibody, LC SEQ ID NO: 28 and HC SEQ ID NO: 30 (antibody) heavy: QVQLVQSGAEVKKPGSSVKVSCKASGYTFTRYYINWVRQAPGQGLEWMGWINPGSGNTKYNEKFKGRVTITADESTSTAYMELSSLRSEDTAVYYCAREGTTVYWGQGTTVTVSSASTKGPSVFPLAPSSKSTSGGTAALGCLVKDYFPEPVTVSWNSGALTSGVHTFPAVLQSSGLYSLSSVVTVPSSSLGTQTYICNVNHKPSNTKVDKKV[human IgG1 Fc left out here] light: DIVMTQTPLSLSVTPGQPASISCKSSQSLLYSRGKTYLNWLLQKPGQSPQLLIYAVSKLDSGVPDRFSGSGSGTDFTLKISRVEAEDVGVYYCVQGTHYPFTFGQGTKLEIKRTVAAPSVFIFPPSDEQLKSGTASVVCLLNNFYPREAKVQWKVDNALQSGNSQESVTEQDSKDSTYSLSSTLTLSKADYEKHKVYACEVTHQGLSSPVTKSFNRGEC", "values": [
      {"measurement": "labeling of deposited Aβ in PDAPP hippocampus", "setting": "deposited Aβ", "value": "labeled a subset of deposits"}
    ]},
    {"molecule": "Antibody I: anti-N3pGlu Aβ antibody, LC SEQ ID NO: 12 and HC SEQ ID NO: 11 (antibody) heavy: QVQLVQSGAEVKKPGSSVKVSCKASGYTFTDYYINWVRQAPGQGLEWMGWINPGSGNTKYNEKFKGRVTITADESTSTAYMELSSLRSEDTAVYYCTREGETVYWGQGTLVTVSSASTKGPSVFPLAPSSKSTSGGTAALGCLVKDYFPEPVTVSWNSGALTSGVHTFPAVLQSSGLYSLSSVVTVPSSSLGTQTYICNVNHKPSNTKVDKKV[human IgG1 Fc left out here] light: DVVMTQSPLSLPVTLGQPASISCKSSQSLLYSRGKTYLNWFQQRPGQSPRRLIYDVSKLDSGVPDRFSGSGSGTDFTLKISRVEAEDVGVYYCVQGTHYPFTFGQGTKLEIKRTVAAPSVFIFPPSDEQLKSGTASVVCLLNNFYPREAKVQWKVDNALQSGNSQESVTEQDSKDSTYSLSSTLTLSKADYEKHKVYACEVTHQGLSSPVTKSFNRGEC", "values": [
      {"measurement": "labeling of deposited Aβ in PDAPP hippocampus", "setting": "deposited Aβ", "value": "labeled a subset of deposits"}
    ]},
    {"molecule": "Antibody II: anti-N3pGlu Aβ antibody, LC SEQ ID NO: 13 and HC SEQ ID NO: 11 (antibody) heavy: QVQLVQSGAEVKKPGSSVKVSCKASGYTFTDYYINWVRQAPGQGLEWMGWINPGSGNTKYNEKFKGRVTITADESTSTAYMELSSLRSEDTAVYYCTREGETVYWGQGTLVTVSSASTKGPSVFPLAPSSKSTSGGTAALGCLVKDYFPEPVTVSWNSGALTSGVHTFPAVLQSSGLYSLSSVVTVPSSSLGTQTYICNVNHKPSNTKVDKKV[human IgG1 Fc left out here] light: DIQMTQSPSTLSASVGDRVTITCKSSQSLLYSRGKTYLNWLQQKPGKAPKLLIYAVSKLDSGVPSRFSGSGSGTEFTLTISSLQPDDFATYYCVQGTHYPFTFGQGTKLEIKRTVAAPSVFIFPPSDEQLKSGTASVVCLLNNFYPREAKVQWKVDNALQSGNSQESVTEQDSKDSTYSLSSTLTLSKADYEKHKVYACEVTHQGLSSPVTKSFNRGEC", "values": [
      {"measurement": "labeling of deposited Aβ in PDAPP hippocampus", "setting": "deposited Aβ", "value": "labeled a subset of deposits"}
    ]},
    {"molecule": "Antibody V: anti-N3pGlu Aβ antibody, LC SEQ ID NO: 33 and HC SEQ ID NO: 35 (antibody) heavy: QVQLVQSGAEVKKPGSSVKVSCKASGYTFTDYYINWVRQAPGQGLEWMGWINPGSGNTKYNEKFKGRVTITADESTSTAYMELSSLRSEDTAVYYCAREGETVYWGQGTTVTVSSASTKGPSVFPLAPSSKSTSGGTAALGCLVKDYFPEPVTVSWNSGALTSGVHTFPAVLQSSGLYSLSSVVTVPSSSLGTQTYICNVNHKPSNTKVDKKV[human IgG1 Fc left out here] light: DIVMTQTPLSLSVTPGQPASISCKSSQSLLYSRGKTYLNWLLQKPGQSPQLLIYAVSKLDSGVPDRFSGSGSGTDFTLKISRVEAEDVGVYYCVQGTHYPFTFGQGTKLEIKRTVAAPSVFIFPPSDEQLKSGTASVVCLLNNFYPREAKVQWKVDNALQSGNSQESVTEQDSKDSTYSLSSTLTLSKADYEKHKVYACEVTHQGLSSPVTKSFNRGEC", "values": [
      {"measurement": "labeling of deposited Aβ in PDAPP hippocampus", "setting": "deposited Aβ", "value": "labeled a subset of deposits"}
    ]}
  ]
}
